Measured values taken from PubChem BioAssay AID1595 (NINDS Approved Drug Screening Program, 2009).
Results filed as inconclusive are left out.

Tested on: Drosophila SCA1 polyglutamine model, toxicity suppression
Assay: Drosophila SCA1 whole organism dose response for polyglutamine toxicity reduction (AID 1595)

## CN(CCCl)CCCl
  EC50: 2.5 µM
